# AlphaSeq binding of Ab-14 heavy chain variants to a spike HR2 peptide

All variants were tested on one target, the spike HR2 peptide PDVDLGDISGINAS (SARS-CoV-2).

Each scFv is VH, a 15-residue (Gly4Ser)3 linker, VL, as in the parent Ab-14, and differs from it in the CDRs of the heavy chain only.
VH: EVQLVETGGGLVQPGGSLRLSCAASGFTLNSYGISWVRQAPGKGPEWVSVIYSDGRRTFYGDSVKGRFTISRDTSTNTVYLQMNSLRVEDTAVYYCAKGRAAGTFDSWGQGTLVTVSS
VL: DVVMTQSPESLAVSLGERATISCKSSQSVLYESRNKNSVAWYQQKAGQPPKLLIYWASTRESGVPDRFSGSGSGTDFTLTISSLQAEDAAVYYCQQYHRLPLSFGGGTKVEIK

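Phage display of a naive human antibody library on the peptide gave the parent. AAYL49 was designed without a model: most single CDR substitutions and a random sample of double and triple ones. Affinity was read by AlphaSeq, a pooled yeast mating assay with surface-displayed partners. Mating (16 h, 30 °C) was followed by selection of diploids and sequencing of their barcodes. The ratio of observed to expected reads was calibrated, replicate by replicate, on BCL2-family standards whose Kd was known from biolayer interferometry. Mating was done three times.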

Substitutions are numbered in sequence along the VH above, starting at 1 (not Kabat). Values are log10 of the apparent Kd in nM; lower means stronger binding. Averages over replicates are reported, and they cover detected replicates only. Where no diploid with the target was found in any replicate, the entry reads "nd": below detection, most likely a poor binder, though not proof of it. Nonspecific signal, from three strains lacking the peptide, appeared in 15% of pairings of library AAYL49, centred on 4.06 (5% of these signals below 2.83); values are not corrected for it. Parent in this assay: reference entry 0.65, copy in this library 4.11 (one replicate of three).

changes,"mean, log10 nM",seen in
T28I+V50H+K65G,nd,0 of 3
G55Y+T58M+D62W,nd,0 of 3
V50A+G99P+F105Y,nd,0 of 3
R56K+T58K,0.97,3 of 3
Y60D+K65D+A102L,4.81,1 of 3
G26D+L29W+D62E,nd,0 of 3
G26E+T28W+S53N,nd,0 of 3
Y32P+Y52W+G99H,nd,0 of 3
R56N+A101T+S107K,1.60,3 of 3
N30T+I51P+A102N,nd,0 of 3
G26K+Y52P+K65S,nd,0 of 3
I51H+D62V,nd,0 of 3
G26M+G33C+R100Y,nd,0 of 3
V50F+T58R+R100Q,nd,0 of 3
N30V+A101Y+G103Q,4.05,1 of 3
V50H+S53N+R100L,4.83,1 of 3
T28P+R56E,0.93,3 of 3
G26C+I51K+F105Y,nd,0 of 3
T28D+V50C+F105S,5.41,2 of 3
I51F+G55L+A102M,nd,0 of 3
I51Y+Y60E+R100I,4.88,3 of 3
G55R+R56V+D62N,3.53,1 of 3
I34G+S53M+A102F,nd,0 of 3
F27K+N30K+S63C,nd,0 of 3
I51M+D54P+R100I,nd,0 of 3
L29H+I34F+V64C,4.68,2 of 3
V50E+D54Y+A102V,nd,0 of 3
N30Q+R56P+T58N,nd,0 of 3
G55R+Y60K+R100G,nd,0 of 3
G103F+F105Q,nd,0 of 3
I51R+T58I+R100Q,nd,0 of 3
G33Q+D106T+S107D,nd,0 of 3
R57V+A101R+S107R,4.54,3 of 3
Y52S+D54H+F59N,5.21,2 of 3
N30S+Y32F+I34Y,4.87,2 of 3
R56G+F105G,4.56,1 of 3
F27C+T28K+L29Q,3.66,2 of 3

Second part, the sequence after the result:

"mean, log10 nM",seen in,changes
2.97,1 of 3,L29E+Y32R+D54H
nd,0 of 3,G55E+Y60M+T104R
3.02,3 of 3,G26P+S53H+S63P
nd,0 of 3,G33R+I51D+T104K
nd,0 of 3,F27E+S35A+D62V
1.10,2 of 3,S31V+R100W
nd,0 of 3,F27P+G33A+S53I
nd,0 of 3,V50N+Y60F
5.62,1 of 3,T58Y+G103K
3.98,1 of 3,D54T+S107A
nd,0 of 3,L29T+I51H+D62R
3.60,1 of 3,G26T+S53D+T104G
nd,0 of 3,N30W+R57C+G61P
1.02,3 of 3,S63D+S107G
4.51,1 of 3,V50R+G103R+S107T
3.82,2 of 3,G55F+R56E
nd,0 of 3,Y60M+T104L+S107E
nd,0 of 3,V50K+G55C+D62V
3.64,1 of 3,G61T+R100F+A102N
3.26,1 of 3,G33P+V50E+S53V
nd,0 of 3,Y32V+I51E+G55R
4.33,2 of 3,I34M+D54N+V64S
4.57,2 of 3,S53D+Y60A+D106F
2.98,3 of 3,N30R+I51M+S63R
nd,0 of 3,T58F+S63L+A101S
nd,0 of 3,L29E+Y52Q+F59H
nd,0 of 3,D62N+R100L+T104Q
4.38,2 of 3,Y52H+G61W+D106L
nd,0 of 3,I51D+F59L+S63Q
3.23,3 of 3,G26V+Y60T+A101I
4.76,1 of 3,G26I+S63D+A102R
nd,0 of 3,T58I+D62G+G99V
nd,0 of 3,L29Y+G99F+D106S
nd,0 of 3,V50R+T104C+F105E
3.98,1 of 3,D54M+A102Q+F105G
nd,0 of 3,Y52P+A101N+A102Y
4.26,1 of 3,G33D+V50A+S63L
0.73,3 of 3,R100G+S107L

The measurements come from Engelhart et al. 2022 (doi:10.1038/s41597-022-01779-4) through the FLAb antibody collection.